Results: BindingDB's records for doi:10.1007/s00044-012-0055-5 (n/a, 2013)

Target: D(2) dopamine receptor (Homo sapiens) (UniProt P14416)
Test: Binding affinity to Homo sapiens (human) dopamine D2S receptor

SMILES: O=c1[nH]c2cccc(N3CCN(Cc4ccccc4)CC3)c2[nH]1 [4-(4-Benzyl-piperazin-1-yl)-1,3-dihydro-benzoimidazol-2-one]
- Ki: 87 nM
